Assay results as given in patent US6586427B2, “Treatments for nervous disorders” (Pharmacia & Upjohn Company, priority 1998, dated 2003).

How the values were obtained:
[1] = in vivo
[2] = tested on: J-adrenergic receptor

CCOc1ccccc1OC(c1ccccc1)C1CNCCO1 (centres unmarked) [Reboxetine]
antireserpine activity [1]: potent antireserpine activity
desensitization of J-adrenergic receptor function [2]: ability to desensitize J-adrenergic receptor function
